The values below come from paper PMC10897015, “Investigation of anti-nociceptive, anti-inflammatory potential and ADMET studies of pure compounds isolated from Isodon rugosus Wall. ex Benth” (Frontiers in Pharmacology, 2024).

Where “and” joins values, the source holds several entries; their conditions need not be identical. Equal values may be shown once.

Test [1] has as its system Swiss albino mice. Description: Formalin test with opioid receptor involvement. The note with it: for formalin induced pain, licking time, individual values: single animals; for Total time spent in licking 15–30 min: second phase.
Test [2] relates to Swiss albino mice. Briefly: Hot plate test with opioid receptor involvement. The note with it: mouse, in vivo. (In general: Hot-plate and tail-flick tests time the reaction to a heat stimulus.)

For `CN1CC[C@]23c4c5ccc(O)c4O[C@H]2[C@@H](O)C=C[C@H]3[C@H]1C5` [Mor, morphine, reference compound], the “formalin induced pain, licking time, individual values” in test [1] (0-5 minutes) was 9.8 and 7.02 and 8.68; in test [1] (15-30 minutes), 6.8 and 5.78 and 7.92. Also, the “Total time spent in licking 0–5 min” value in test [1] (first phase, compounds 50 mg/kg, Mor 5 mg/kg, Nal 1 mg/kg) is given as 8.5 s. Moreover, the “Total time spent in licking 15–30 min” value in test [1] (compounds 50 mg/kg, Mor 5 mg/kg, Nal 1 mg/kg) was 06.83 ± 0.60 s; in test [1] (compounds 50 mg/kg, Mor 5 mg/kg, Nal 1 mg/kg, listed as morphine), 6.833 s. In addition, the “Reaction time on hot plate, individual values” in test [2] is 10.21 and 9.8 and 8.98 and 8.52 and 5.49 and 11.15 and 10.46 and 9.71 and 9.7 and 7.34 and 12.12 and 11.13 and 10.51 and 10.98 and 9.24.
